Measurements reported in patent US9908890B2, “Selective inhibitors of constitutive androstane receptor” (ST. JUDE CHILDREN'S RESEARCH HOSPITAL, priority 2014, dated 2018).

By UniProt entry, the sequences of proteins in these tests, tags left out. Residues count along the entry.
UniProt Q14994, 109-352 limits assumed: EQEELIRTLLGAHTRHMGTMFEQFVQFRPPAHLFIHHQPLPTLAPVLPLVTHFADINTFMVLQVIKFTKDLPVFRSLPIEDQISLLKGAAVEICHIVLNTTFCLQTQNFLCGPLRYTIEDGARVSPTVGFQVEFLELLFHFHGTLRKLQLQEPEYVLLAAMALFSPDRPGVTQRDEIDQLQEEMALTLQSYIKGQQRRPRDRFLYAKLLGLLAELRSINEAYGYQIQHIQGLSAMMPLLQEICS

Target: GST-hCAR-LBD (Homo sapiens, UniProt Q14994)
Test: CoAct binding inverse agonist assay (LanthaScreen TR-FRET, fluorescent PGC-1α coactivator recruitment/repression)
Assay type: biochemical
Conditions: Table 4

| Compound | IC50 [nM] |
| --- | --- |
| CC(C)OC(=O)Nc1ccc2c(c1)N(CCn1cccc1)c1ccccc1CC2 | 310 |
| CC(C)OC(=O)Nc1ccc2c(c1)N(CC(=O)n1cccc1)c1ccccc1CC2 | 1170 |
